# Ab-91 heavy chain CDR variants: yeast mating affinities

Source: Engelhart et al. 2022 (doi:10.1038/s41597-022-01779-4), MIT Lincoln Laboratory and A-Alpha Bio; data file from the FLAb repository.

Antigen: PDVDLGDISGINAS, a 14-residue peptide of the SARS-CoV-2 spike HR2 region.

Parent scFv Ab-91: VL joined to VH by a 15-residue (Gly4Ser)3 linker. Changes lie in the heavy chain CDRs alone.
VL: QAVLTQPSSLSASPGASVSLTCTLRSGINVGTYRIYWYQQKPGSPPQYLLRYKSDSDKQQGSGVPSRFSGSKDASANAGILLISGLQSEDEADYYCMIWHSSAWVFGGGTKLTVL
VH: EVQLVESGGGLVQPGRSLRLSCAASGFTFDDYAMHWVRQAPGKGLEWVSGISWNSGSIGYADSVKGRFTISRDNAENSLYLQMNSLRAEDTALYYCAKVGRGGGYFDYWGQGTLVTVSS

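The parent was found by panning a naive human phage display library on the peptide. The library (AAYL51) carries one to three amino acid substitutions per variant, with no insertions or deletions. The scFvs were displayed on barcoded MATa yeast, the peptide on MATalpha yeast. Mating (16 h, 30 °C) was followed by selection of diploids and sequencing of their barcodes. The ratio of observed to expected reads was calibrated, replicate by replicate, on BCL2-family standards whose Kd was known from biolayer interferometry. The assay was run in three technical replicates.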

Substitutions are numbered in sequence along the VH above, starting at 1 (not Kabat). The read-out is the apparent dissociation constant on a log10 scale (nM): the lower, the stronger. Replicates are averaged; those with no signal do not enter the mean. "n.d." means that the variant was in the library but no mating with the target was seen in that replicate; the authors take this as a sign of poor binding, and no number exists. For reference, the parent read 1.86 as the reference entry and 0.88 as a member of this library. Empty control strains, which show no peptide, gave a signal in 21% of pairings with library AAYL51; the median was 4.54 and 95% of these signals were weaker than 3.26. No background was subtracted. Also given: how often the same scFv was detected with the empty control strains, with their mean in brackets.

changes | replicates, log10 nM | mean, log10 nM | empty controls
F29A+G50Q | n.d. n.d. n.d. | n.d. | 2 of 9 (3.53)
D31V+G100D | n.d. 3.70 n.d. | 3.70 | 2 of 9 (4.10)
R101S+G104K+Y108C | 1.13 0.98 0.33 | 0.81 | 2 of 9 (3.17)
S63W+G100C+Y108E | 4.08 n.d. n.d. | 4.08 | 1 of 9 (4.48)
D30F+D31N+Y32E | 4.97 5.65 n.d. | 5.31 | 5 of 9 (5.16)
G59C+G100F+Y108F | n.d. n.d. n.d. | n.d. | 0 of 9
T28Q+S57A | 1.67 1.55 1.03 | 1.42 | 4 of 9 (4.80)
Y32I+I51K | n.d. n.d. n.d. | n.d. | 2 of 9 (3.62)
M34I+S57Y+D62K | 4.96 n.d. n.d. | 4.96 | 0 of 9
D30I+G56N+V99W | n.d. n.d. n.d. | n.d. | 1 of 9 (3.75)
D30G+D62C+G102A | 4.26 n.d. 3.58 | 3.92 | 0 of 9
G26D+G50I+D107Y | 3.18 n.d. n.d. | 3.18 | 0 of 9
F29H+G50F+I51Y | n.d. n.d. n.d. | n.d. | 0 of 9
F29Y+M34T+N54P | 3.83 n.d. n.d. | 3.83 | 3 of 9 (4.87)
D31N+H35E+Y105C | n.d. n.d. n.d. | n.d. | 1 of 9 (4.23)
Y60A+V99F+G103E | 5.87 n.d. n.d. | 5.87 | 6 of 9 (4.72)
M34A+G100A+Y105S | n.d. 4.53 n.d. | 4.53 | 4 of 9 (3.91)
D107Q | 4.38 4.69 n.d. | 4.53 | 2 of 9 (4.64)
F27W+R101S+D107S | n.d. n.d. n.d. | n.d. | 1 of 9 (5.79)
G50M+Y60A+A61L | 4.63 5.91 n.d. | 5.27 | 4 of 9 (4.62)
G26Y+F29M+F106Y | n.d. n.d. n.d. | n.d. | 1 of 9 (4.40)
G26F+G56C+G59M | n.d. n.d. n.d. | n.d. | 2 of 9 (4.87)
V64P+G103Q | n.d. n.d. n.d. | n.d. | 0 of 9
A61F+G102Q | n.d. n.d. 4.36 | 4.36 | 2 of 9 (4.42)
S52F+D62I+D107V | n.d. n.d. n.d. | n.d. | 0 of 9
G26V+H35P+N54W | n.d. n.d. n.d. | n.d. | 0 of 9
G59M+Y60I+G100P | 6.05 n.d. n.d. | 6.05 | 2 of 9 (3.14)
I51D+S57C+Y105S | 4.22 n.d. 4.00 | 4.11 | 2 of 9 (5.58)
D30H+G103F+G104L | n.d. n.d. n.d. | n.d. | 1 of 9 (4.40)
F29A+G56P+Y105L | n.d. n.d. n.d. | n.d. | 0 of 9
T28L+D31F+F106P | 1.85 2.01 1.52 | 1.79 | 3 of 9 (5.12)
G50N+W53I | n.d. 3.73 n.d. | 3.73 | 0 of 9
T28E | 2.56 1.96 1.65 | 2.05 | 1 of 9 (3.97)
F27M+S63M+G102P | 3.62 n.d. n.d. | 3.62 | 2 of 9 (4.99)
W53Q+A61P+Y108C | 5.36 n.d. n.d. | 5.36 | 1 of 9 (3.20)
T28F+N54S+Y60T | n.d. 3.45 n.d. | 3.45 | 3 of 9 (3.87)
A61E+Y105A | 1.41 1.46 1.04 | 1.30 | 9 of 9 (5.08)
F27H+V64Y | 4.14 n.d. n.d. | 4.14 | 1 of 9 (4.63)

For reference, 6 entries of the list once more:

changes | replicates, log10 nM | mean, log10 nM | empty controls
V64P+G103Q | n.d. n.d. n.d. | n.d. | 0 of 9
T28E | 2.56 1.96 1.65 | 2.05 | 1 of 9 (3.97)
A61F+G102Q | n.d. n.d. 4.36 | 4.36 | 2 of 9 (4.42)
Y32I+I51K | n.d. n.d. n.d. | n.d. | 2 of 9 (3.62)
F29Y+M34T+N54P | 3.83 n.d. n.d. | 3.83 | 3 of 9 (4.87)
A61E+Y105A | 1.41 1.46 1.04 | 1.30 | 9 of 9 (5.08)